Reference: patent publication US8067628B2, “Water-soluble binuclear nitrosyl iron complexes with natural aliphatic thiolyls possessing cytotoxic, apoptotic and no-donor activity” (priority 2008, dated 2011)

Assay type: physicochemical
Description: Di-μ-cystamine tetranitrosyl di-iron sulphate (Fe2S3N6C4H19O10.5) (I) was prepared by reacting iron sulphate (II) with cystamine hydrochloride solution. Distilled water used in the synthesis required preliminary preparation to remove oxygen dissolved therein. To this end, a flow of inert gas (argon or nitrogen) was passed through a flask with distilled water for 30 minutes. 0.84 grams (3 mmol) iron sulphate heptahydrate were dissolved in 12 ml prepared distilled water. To this solution, 0.40 g (3.5 mmol) cystamine hydrochloride dissolved in 8 ml water was added to this solution. Nitrogen monoxide flow prepared according to the technique [Yu. V. Karyakin and I. I. Angeov. Chistiye khimicheskiye veshchestva (Pure chemical substances), Moscow: Khimiya publishing house, 1974, 23] was passed through the prepared solution for 1 to 1.5 hours at ˜40° C. until crystals were formed in the solution. Reaction mixture was then allowed to stand at 6 to 8° C. for 15 to 20 hrs; a formed brown-red fine crystalline precipitate was filtered off and dried in air for 24 hours. Yield was […] (16.5%).

## Di-μ-cystamine tetranitrosyl di-iron sulphate [complex I]
  solubility in DMSO: readily soluble
  solubility in methanol: less soluble
  solubility in other organic solvents: insoluble
  solubility in water: readily soluble
